## Yeast mating assay B: variants of the scFv Ab-14

Target peptide (SARS-CoV-2 spike, HR2 region): PDVDLGDISGINAS

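The starting antibody came from a phage panning campaign against this peptide. These sequences belong to a second round, designed from the earlier measurements on random variants of the parent. Their group label is 14H_GP_HC (GP: Gaussian process model; HC: hill climbing; a sequence that several methods proposed may carry one label only). The scFvs were displayed on barcoded MATa yeast, the peptide on MATalpha yeast. Pairs that bind mate more often; barcode pairs of the diploids are counted by sequencing. The ratio of observed to expected reads was calibrated, replicate by replicate, on BCL2-family standards whose Kd was known from biolayer interferometry. Each pool was mated in six replicate cultures.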

Ab-14 is the parent antibody, in scFv form: VH, then three GGGGS repeats, then VL. The light chain is unchanged in all variants.
VH: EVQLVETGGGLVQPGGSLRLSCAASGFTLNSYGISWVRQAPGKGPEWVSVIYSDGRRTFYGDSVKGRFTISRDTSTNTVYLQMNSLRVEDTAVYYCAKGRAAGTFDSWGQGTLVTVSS
VL: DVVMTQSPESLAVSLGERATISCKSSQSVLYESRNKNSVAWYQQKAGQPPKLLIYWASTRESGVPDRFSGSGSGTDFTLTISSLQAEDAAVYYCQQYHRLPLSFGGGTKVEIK

Variants are written as CDR1, CDR2 and CDR3 of the heavy chain (limits as in the source). Parent: GFTLNSYGIS, VIYSDGRRTFYGDSVK, GRAAGTFDS.
Scale: log10 of Kd in nM, estimated from mating counts; low values are strong binders.
A mean of the replicates is given; it leaves out those without a signal.
"nd" marks a missing value. The strain was present, yet no cells mated with the target were sequenced in that replicate, which points to weak or no binding.
In the paper, a design with two or fewer of six values counts as a poor binder.

For GFTLNSYGIS / VIYSDGRRTFYGDSVK / GRTAGSFTT, the assay gave nd, nd, nd, nd, nd, nd (controls 0 of 18).
For GFTLESYGIS / VIYSDGKRTFYGDSVK / GRAAGTFTS, the assay gave nd, nd, nd, nd, nd, nd (controls 1 of 18).
For GFTLNEYGIS / VIYSDGRRTFYGDSVK / GRFAGTFDF, the assay gave nd, nd, nd, 1.84, nd, nd (controls 0 of 18).
For GFCLNDYGIS / VIYSDGRRTFYADSVK / GRAAGTFDE, the assay gave nd, nd, nd, nd, nd, nd (controls 0 of 18).
For GFYLNDYGIS / VIYSDGRRTFYGDSVK / GTAAGTFDS, the assay gave nd, -0.04, 0.81, 0.22, 0.46, 0.67 (mean 0.43; controls 1 of 18).
For GFSLNEYGIS / VIYADGRRTFYGDSVK / GRAAGTFKS, the assay gave 0.24, 0.64, 0.34, 0.09, 0.15, 0.46 (mean 0.32; controls 0 of 18).
For GFTLNEYGIS / VIYSDGRRTFYSDSVK / GEQAGTFDS, the assay gave 0.86, 0.65, 0.44, 0.45, 0.41, 0.48 (mean 0.55; controls 0 of 18).
For GFELNDYGIS / VIYSDGRRTMYIDSVK / GRAAGTFDS, the assay gave 1.93, 1.42, 1.67, 1.62, 1.78, 1.71 (mean 1.69; controls 0 of 18).
For GFTLNDYGIS / VIYSDGRRTFYSDSVK / GRAVGTFDS, the assay gave nd, nd, nd, nd, nd, nd (controls 0 of 18).
For GFTLNSYGIS / VIYSDGRRTFYSDSVK / GEAGGTFDV, the assay gave 2.05, 1.41, 1.15, 1.21, 1.30, 1.19 (mean 1.38; controls 0 of 18).
For GFDLNEYGIS / VIYSDGRRTFYCDSVK / GRAAVTFDQ, the assay gave nd, nd, 1.92, nd, nd, nd (controls 1 of 18).
For GFHLNDYGIS / VIYSDGRRTFYCDSVK / GRLAGTFDS, the assay gave 2.43, nd, nd, 1.08, 1.25, 1.69 (mean 1.61; controls 0 of 18).
For GFTLNEYGIS / VIYSDGRRTFYTDSVK / GRMAGTFDI, the assay gave 1.06, 0.32, 0.14, -0.10, -0.04, 0.47 (mean 0.31; controls 2 of 18).
For GFDLNSYGIS / VIYSDGRRTFYGDSVK / GRTAGSFKS, the assay gave nd, nd, nd, nd, nd, nd (controls 1 of 18).
For GQTLNSYGIS / VIYSDGRRTFYSDSVK / GRLAGTFDT, the assay gave 1.00, 1.01, 1.34, 1.33, 1.24, 1.48 (mean 1.23; controls 0 of 18).
For GFTLNSYGIS / VIYSDGRRTFYSDSVK / GVEAGTFFS, the assay gave nd, nd, nd, nd, nd, nd (controls 0 of 18).
For GFELNSYGIS / VIYSDGRRTFYSDSVK / GHAAGTFDS, the assay gave 1.63, 0.81, 0.85, 0.34, 0.26, 0.83 (mean 0.79; controls 0 of 18).
For GFTLNEYGIS / VIYSDGVRTFYSDSVK / GRAGGTFDS, the assay gave 1.25, 0.88, 0.60, 1.08, 0.25, 1.14 (mean 0.87; controls 0 of 18).
For GFTLDSYGIS / VIYSDGRRTFYDDSVK / GQTAGTFDS, the assay gave nd, nd, nd, nd, 0.58, nd (controls 0 of 18).
For GFTLNDYGIS / VIYSDGRRTFYSDAVK / GRTAGTFDS, the assay gave -0.23, -0.35, -0.30, -0.66, -0.53, -0.15 (mean -0.37; controls 1 of 18).
For GFTLNEYGIS / VIYSDGKRTQYADSVK / GRAAGTFDS, the assay gave 0.69, 0.45, 0.51, 0.22, 0.43, 0.97 (mean 0.54; controls 0 of 18).
For GFTLNEYGIS / VIYSDGRRTFYSDAVK / GRNAGTFDS, the assay gave -0.07, -0.06, -0.69, 0.24, 0.18, 0.03 (mean -0.06; controls 0 of 18).
For GFQLNSYGIS / VIYSDGRRTFYSDSVK / GHAAGTFDS, the assay gave 2.25, 2.49, 1.95, 0.80, 1.42, 0.66 (mean 1.59; controls 0 of 18).
For GNTLNEYGIS / VIYSDGRRTFYGDSVK / GRMAGTFDT, the assay gave 1.40, 1.38, 1.65, 1.95, 0.92, 1.45 (mean 1.46; controls 0 of 18).
For HFTLNDYGIS / VIYSDGRRTAYIDSVK / GRAAGTFDS, the assay gave 0.52, 0.74, 0.94, 0.93, 2.28, 0.86 (mean 1.05; controls 0 of 18).
For GFDLNSYGIS / VIYSDGRRTFYIDSVK / GQLAGTFDS, the assay gave nd, nd, 1.23, -0.50, -0.05, nd (mean 0.23; controls 0 of 18).
For GFTLNEYGIS / VIYSDGRRTFYGDSVK / GRAAGTWDS, the assay gave 1.47, nd, 2.67, 2.28, 1.67, nd (mean 2.02; controls 0 of 18).
For GFTLNSYGIS / VIYSDGERTFYSDSVK / GRAAGTFDS, the assay gave nd, 1.95, 2.96, 1.75, nd, 2.11 (mean 2.19; controls 0 of 18).
For GFTLDSYGIS / VIYADGRRTFYGDSVK / GRAAGTFSS, the assay gave -1.21, 0.03, -0.45, -0.54, -0.75, -0.87 (mean -0.63; controls 0 of 18).
For GSTLNEYGIS / VIYSDGRRTFYTDSVK / GRNAGTFDS, the assay gave 0.25, 0.39, 0.33, 0.37, 1.28, 0.44 (mean 0.51; controls 0 of 18).
For GFTLDSYGIS / VIYSDGRRTFYGDSVK / GNAAGTFDR, the assay gave nd, nd, 0.52, nd, 3.04, nd (mean 1.78; controls 0 of 18).
For GFTLNDYGIS / VIYSDGRRTFYSDSVK / GRAAVTFDT, the assay gave nd, nd, nd, nd, nd, nd (controls 0 of 18).
For GFTLESYGIS / VIYSDGRRTFYDDSVK / GQAAGTFDS, the assay gave nd, 2.47, nd, 0.94, nd, 1.16 (mean 1.52; controls 0 of 18).
For GFQLNDYGIS / VIYSDGRRTFYIDQVK / GKAAGTFDS, the assay gave nd, 0.48, nd, 0.75, nd, nd (mean 0.62; controls 0 of 18).

Three control strains display no target. For all heavy chain designs, 1% of the pairings with them gave a signal, with a median of 2.08 and one signal in twenty below 0.84, so weak values seen in few replicates may be background. The control count says in how many pairings with the empty strains this scFv gave a signal.
The range of this assay differs from that of the first round, and the authors advise against merging the two.

Values reported by Li et al. 2023, doi:10.1038/s41467-023-39022-2 (FLAb copy).